Experimental data from patent publication US11819556B2, “Stabilized compositions of radionuclides and uses thereof” (RayzeBio, Inc., priority 2021, dated 2023).

Details: 0 hour after mixing; 0.03 mCi/ml, excipient 1 mg/ml in sodium acetate-acetic acid buffer pH 5.80, 25° C.

Row | SMILES | Percentage of ^225Ac present in [^225Ac]Ac-DOTA-TATE [%]
1 | O=C(O)CCCC[C@@H]1CCSS1 (racemic) [Lipoic Acid] | 98.61
2 | O=C(O)CC(O)(CC(=O)O)C(=O)O [Citric Acid] | 99.42
3 | N[C@H](CS)C(=O)O [D-Cysteine] | 98.61
4 | NCCCC[C@H](N)C(=O)O [L-Lysine] | 99.42
5 | CC(=O)N[C@@H](CS)C(=O)O [N-Acetyl-L-Cysteine] | 99.42
6 | O=S([O-])O.[Na+] [Sodium Bisulfite] | 98.61
